Source: patent US8569343B2, “Oligomer-opioid agonist conjugates” (Nektar Therapeutics, priority 2007, dated 2013)

The chains behind the UniProt entries cited, without tags or fusion partners. Where a name states a change or a piece, a line headed by the entry shows the natural chain unless it says otherwise.
UniProt P41145: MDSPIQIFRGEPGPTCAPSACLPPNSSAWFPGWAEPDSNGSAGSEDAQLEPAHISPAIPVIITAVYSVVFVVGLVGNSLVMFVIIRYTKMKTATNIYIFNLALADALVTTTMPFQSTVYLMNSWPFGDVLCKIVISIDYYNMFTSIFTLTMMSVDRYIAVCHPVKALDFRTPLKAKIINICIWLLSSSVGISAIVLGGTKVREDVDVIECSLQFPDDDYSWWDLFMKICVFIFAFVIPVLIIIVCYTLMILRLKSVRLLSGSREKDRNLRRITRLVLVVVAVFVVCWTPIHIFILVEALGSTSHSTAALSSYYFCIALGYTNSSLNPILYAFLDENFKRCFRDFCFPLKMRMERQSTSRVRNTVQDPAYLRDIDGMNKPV

Molecular target: T1, cloned human kappa opioid receptor (Homo sapiens, UniProt P41145)
T1 construct: expressed in transfected cells; host or cells: CHO cells
Experiment: cell-based

COc1ccc2c3c1O[C@H]1C(=O)CC[C@@]4(O)[C@@H](C2)N(C)CC[C@]314 [Oxycodone, oxycodone, reference compound]
EC50: > 500 µM
